# Measured values taken from PMC8468607 (International Journal of Molecular Sciences, 2021).
# Experiments:
# Format in all cases: cell-based
# [1] = system: Hep3B cells; experiment: Proliferation assay (MTT), Hep3B; settings: Homo sapiens, HCC cell line, 48 h, mean ± S.E.M., read-out: IC50 against cell proliferation, Hep3B
# From the text: (§1) Human cancer cell lines derived from the liver (Hep3B, Huh7) and the lung (A549, H1299) were obtained from American Type Culture Collection (ATCC, Manassas, VA, USA). An H6c7 human normal pancreatic duct epithelial cell line was purchased from Kerafast (Boston, MA, USA). […] The media were supplemented with 10% fetal bovine serum (FBS) (Gibco/ThermoFisher Scientific) and 1% penicillin/streptomycin (Gibco/ThermoFisher Scientific). In the case of H6c7, the cells were maintained in a keratinocyte serum-free medium supplemented with a recombinant […] (rEGF) and bovine pituitary extract (Gibco/ThermoFisher Scientific).
# (§2) HCC (Hep3B, Huh7) and NSCLC (A549, H1299) cell lines were seeded in a 96-well plate at a density of 2.5 × 10^4 cells/mL in complete media and allowed to adhere for 24 h. […] Then, the media were removed, and 200 µL of dimethyl sulfoxide (DMSO) (Duksan, Ansan, South Korea) was added to solubilize the formazan crystal. After a 30 min incubation, the absorbance was measured at 540 nm using a microplate reader (BMG LABTECH, Ortenberg, Germany).
# [2] = system: Huh7 cells; experiment: Proliferation assay (MTT), Huh7; settings: Homo sapiens, Huh-7, HCC cell line, 48 h, mean ± S.E.M., read-out: IC50 against cell proliferation, Huh7
# From the text: as §1, §2
# [3] = system: A549 cells; experiment: Proliferation assay (MTT), A549; settings: Homo sapiens, NSCLC cell line, 48 h, mean ± S.E.M., read-out: IC50 against cell proliferation, A549
# From the text: as §1, §2
# [4] = system: H1299 cells; experiment: Proliferation assay (MTT), H1299; settings: Homo sapiens, NCI-H1299, NSCLC cell line, 48 h, mean ± S.E.M., read-out: IC50 against cell proliferation, H1299
# From the text: as §1, §2
structure (smiles),measurement,setting,value
"COc1cc2nccc(Oc3ccc(NC(=O)C4(C(=O)Nc5ccc(F)cc5)CC4)cc3)c2cc1OC [Cabozantinib, cabozantinib, reference compound]",IC50,[1],15.2 ± 2.8 µM
same,IC50,[2],9.1 ± 1.1 µM
same,IC50,[3],37.3 ± 10 µM
same,IC50,[4],16.1 ± 2.8 µM
